Laboratory results taken from patent publication US10111889B2, “Uses of ganaxolone” (priority 2014, dated 2018).

What was measured:
[1] = system: GABAA receptor; test: Whole-cell patch clamp, tonic/holding current in somatosensory cortical layer II/III pyramidal cells of brain slices; type: cell-based, mouse; conditions: for current density / inhibitory holding current / evoked current: mean±SEM
Description: (§1) Horizontal slices (400 μm) were prepared from the brains of C57BL/6J mice RR and RQ mice of either sex (16-26 days old). All procedures were approved by the University of Wisconsin Institutional Animal Care and Use Committee. Mice were anesthetized with isoflurane, decapitated, and the brain was removed and placed in ice-cold cutting solution containing (in mM): 125 NaCl, 25 NaHCO3, 2.5 KCl, 1.25 NaH2PO4, 0.5 CaCl2, 3.35 MgCl2, 25 D-Glucose, 13.87 M sucrose, and bubbled with 95% O2 and 5% CO2. Slices were cut using a vibratome (Leica VT 1000S, Global Medical Imaging; Ramsey, Minn.) and placed in an incubation chamber containing standard 2 mM CaCl2, 1 mM MgCl2 artificial cerebrospinal fluid (ACSF) at room temperature for 1 hour before being used for recordings. Whole cell patch-clamp recordings were made from somatosensory cortical layer II/III pyramidal cells or ventrobasal thalamic relay cells, visualized using an upright differential interference contrast microscope (Axioskop FS2, Zeiss; Oberkochen, Germany). Patch pipettes were pulled from thin-walled borosilicate glass (World Precision Instruments; Sarasota, Fla.) with a resistance of 3-5 MΩ when filled with intracellular solution containing (in mM): 140 K-gluconate, 10 EGTA, 10 HEPES, 20 phosphocreatine, 2 Mg2ATP, 0.3 NaGTP (pH 7.3, 310 mOsm). Recordings were made in a submerged chamber at room temperature using a MultiClamp 700B amplifier (Axon Instruments; Foster City, Calif.), filtered at 4 kHz and digitized at 10 kHz using a Digidata 1322A analog-digital interface (Axon Instruments). Data were acquired to a Macintosh G4 (Apple Computer; Cupertino, Calif.) using Axograph X v1.1.4 (Molecular Devices; Sunnyvale, Calif.).
(§2) Additional segments (30 s) just prior to and 90 s after bicuculline administration were analyzed to quantify inhibitory tonic currents. All-point amplitude histograms were computed for each segment, and fit with a Gaussian function only to the outward current portions relative to the peak in order to omit components arising from inward phasic mIPSCs. Tonic current was calculated as the difference between the fitted Gaussian means before and after bicuculline administration. Current density (pA/pF) was calculated by dividing the current by cell capacitance. Similar fitting was used to measure the currents produced by THIP (4,5,6,7-tetrahydroisoxazolo[5,4-c]pyridin-3-ol; Gaboxadol), allopregnanolone (ALLO) and ganaxolone (GANX).

[2] = system: GABAA receptor; test: Whole-cell patch clamp, drug-induced current in ventrobasal thalamic relay neurons of brain slices; type: cell-based, mouse; conditions: for reduction of induced current density in RQ compared to RR: thalamic relay neurons; for current produced in thalamic neurons: mean±SEM
Description: as §1, §2

Q: For `CC(=O)[C@H]1CC[C@H]2[C@@H]3CC[C@H]4C[C@](C)(O)CC[C@]4(C)[C@H]3CC[C@]12C` [GANX, 3α-hydroxy-3β-methyl-5α-pregnan-20-one], which current density ([1]; 10 nM, RQ cortical neurons) is on record?
A: 0.38±0.08 pA/pF

Q: And the inhibitory holding current ([1]; 10 nM, RQ cortical neurons)?
A: 9.8±2.5 pA

Q: `CC(=O)[C@H]1CC[C@H]2[C@@H]3CC[C@H]4C[C@H](O)CC[C@]4(C)[C@H]3CC[C@]12C` [allopregnanolone] was tested. Which “induced current amplitude and density in RQ compared to RR” value ([1]; 30 nM, cortical layer II/III cells) did it give?
A: indistinguishable current amplitude and density

Q: And the “reduction of induced current density in RQ compared to RR” value ([2]; ALLO 30 nM)?
A: approximately 50%

Q: And the “current in RQ thalamic neurons as % of the current observed in RR” value ([2]; allopregnanolone 30 nM)?
A: 39%

Q: What about the “current produced in thalamic neurons” value ([2]; allopregnanolone 30 nM, RQ thalamic relay neurons) of the same molecule?
A: 13.7±3.8 pA

Q: And the “current produced in thalamic neurons” value ([2]; allopregnanolone 30 nM, RR thalamic relay neurons)?
A: 34.7±6.5 pA

Q: For `Oc1noc2c1CCNC2` [THIP, 4,5,6,7-tetrahydroisoxazolo[5,4-c]pyridin-3-ol], which current density ([1]; 100 nM, RQ cortical neurons) is on record?
A: 0.36±0.16 pA/pF

Q: And the inhibitory holding current ([1]; 100 nM, RQ cortical neurons)?
A: 6.5±1.7 pA

Q: What about the “holding current amplitude and density in RQ relative to RR untreated neurons” value ([1]; 1 μM, RQ cortical neurons) of the same molecule?
A: 2-4 times

Q: What about the current density ([1]; 1 μM, RQ cortical neurons) of the same molecule?
A: 1.3±0.14 pA/pF

Q: What about the evoked current ([1]; 1 μM, RQ cortical neurons) of the same molecule?
A: 23.8±2.2 pA

Q: What about the inhibitory holding current ([1]; 1 μM, RQ cortical neurons) of the same molecule?
A: 23.88±2.2 pA

Q: What about the evoked current ([1]; 1 μM, RR cortical neurons) of the same molecule?
A: 21.4±5.7 pA

Q: What about the “current in RQ thalamic neurons as % of the current produced in RR” value ([2]; THIP 1 μM) of the same molecule?
A: 47%

Q: And the “current produced in thalamic neurons” value ([2]; THIP 1 μM, RQ thalamic relay neurons)?
A: 69.3±22.4 pA

Q: What about the “current produced in thalamic neurons” value ([2]; THIP 1 μM, RR thalamic relay neurons) of the same molecule?
A: 131.7±31.2 pA

Q: What about the “reduction of induced current density in RQ compared to RR” value ([2]; THIP 1 μM) of the same molecule?
A: approximately 50%
